Data taken from ChEMBL document CHEMBL4261646, “Bisphosphonate Inhibitors of Mammalian Glycolytic Aldolase” (J Med Chem, 2018).

Key:
Homo sapiens [1] = species: Homo sapiens; test: Slow binding inhibition of fructose-bisphosphate aldolase (unknown origin) assessed as substrate Vm using FBP as substrate and NADH by UV-Vis spectrophotometry dependent TIM/GDH coupled assay based Dixon plot analysis
Homo sapiens [2] = species: Homo sapiens; test: Slow binding inhibition of fructose-bisphosphate aldolase (unknown origin) assessed as off-rate binding constant of slow binding event using FBP as substrate and NADH by UV-Vis spectrophotometry dependent TIM/GDH coupled assay based Dixon plot analysis
Homo sapiens [3] = species: Homo sapiens; test: Slow binding inhibition of fructose-bisphosphate aldolase (unknown origin) assessed as on-rate binding constant of slow binding event using FBP as substrate and NADH by UV-Vis spectrophotometry dependent TIM/GDH coupled assay based Dixon plot analysis

`O=P([O-])([O-])Oc1ccc2cc(C(P(=O)([O-])[O-])P(=O)([O-])[O-])ccc2c1.[Li+].[Li+].[Li+].[Li+].[Li+].[Li+]` gave a Vmax (Homo sapiens [1]) of 11.7 U/mg, a K (Homo sapiens [2]) of 0.01 min⁻¹ and a K (Homo sapiens [3]) of 0.064 min⁻¹.
